{"source": "patent US8937052B2", "about": "“Therapeutic protocols using hyaluronan” (Alchemia Oncology Pty Limited, priority 2005, dated 2015)", "origin": "cited, not measured here", "details": "Historical Comparator Publication 4; CPT-11 350 mg/m^2, […] infusion; cited from earlier work", "note": "Counter-ions that a name gives are not always drawn.", "data": [{"molecule": "CCc1c2c(nc3ccc(OC(=O)N4CCC(N5CCCCC5)CC4)cc13)-c1cc3c(c(=O)n1C2)COC(=O)[C@]3(O)CC", "note": "[CPT-11, Irinotecan hydrochloride]", "values": [{"measurement": "CPT-11 AUCtotal", "value": "20500 ± 7100", "unit": "ng·h/mL"}]}]}
